Permeability data for macrocyclic peptides

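Lipid, pH, incubation time, direction and concentration are not recorded in the data file. Other peptides of the study may be missing here. Peptides that the database sets to -10, its floor, are left out.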

PAMPA is the parallel artificial membrane permeability assay, which has no cells and reads passive diffusion. Permeability is in 10^-6 cm/s, converted from the database's log10 values; higher is more permeable.

compound	PAMPA (10^-6 cm/s)
CCCC[C@@H]1NC(=O)[C@H](CC(C)C)NC(=O)CN(CC2CCOCC2)C(=O)[C@@H](C)NC(=O)CN(CCCOC(C)C)C(=O)[C@H]2CCCN2C1=O	0.014
CCCC[C@@H]1NC(=O)[C@@H](CC(C)C)NC(=O)CN(CC2CCCCC2)C(=O)[C@@H](Cc2ccccc2)NC(=O)CN(Cc2ccc3c(c2)OCO3)C(=O)[C@H]2CCCN2C1=O	0.0054
CCCC[C@@H]1NC(=O)[C@H](CC(C)C)N(C)C(=O)CN(CC2CCOCC2)C(=O)[C@@H](Cc2ccccc2)NC(=O)CN(CCCOC(C)C)C(=O)[C@@H]2CCCN2C1=O	0.54
CCCCCN1CC(=O)N[C@@H](CC(C)C)C(=O)N[C@@H](CCCC)C(=O)N2CCC[C@H]2C(=O)N(Cc2ccc3c(c2)OCO3)CC(=O)N[C@H](Cc2ccccc2)C1=O	4.1
CCCC[C@@H]1NC(=O)[C@H](CC(C)C)NC(=O)CN(CC2CCCCC2)C(=O)[C@@H](Cc2ccccc2)NC(=O)CN(CC)C(=O)[C@H]2CCCN2C1=O	5
CCCC[C@@H]1NC(=O)[C@H](CC(C)C)N(C)C(=O)CN(CC2CCOCC2)C(=O)[C@H](C)NC(=O)CN(CCCOC(C)C)C(=O)[C@@H]2CCCN2C1=O	0.25
CCCC[C@@H]1NC(=O)[C@@H](CC(C)C)N(C)C(=O)CN(CC2CCCCC2)C(=O)[C@H](C)NC(=O)CN(CCCOC(C)C)C(=O)[C@H]2CCCN2C1=O	14
CCCC[C@@H]1NC(=O)[C@@H](CC(C)C)N(C)C(=O)CN(CC2CCCCC2)C(=O)[C@H](C)NC(=O)CN(CC)C(=O)[C@H]2CCCN2C1=O	12
CCCC[C@@H]1NC(=O)[C@@H](CC(C)C)NC(=O)CN(CC2CCOCC2)C(=O)[C@@H](Cc2ccccc2)NC(=O)CN(CC)C(=O)[C@@H]2CCCN2C1=O	0.11
CCCC[C@@H]1NC(=O)[C@H](CC(C)C)N(C)C(=O)CN(CC2CCCCC2)C(=O)[C@@H](C)NC(=O)CN(CC)C(=O)[C@H]2CCCN2C1=O	1
CCCC[C@@H]1NC(=O)[C@@H](CC(C)C)N(C)C(=O)CN(CC2CCOCC2)C(=O)[C@H](Cc2ccccc2)NC(=O)CN(CC)C(=O)[C@H]2CCCN2C1=O	6.8
CCCC[C@@H]1NC(=O)[C@H](CC(C)C)N(C)C(=O)CN(CC2CCCCC2)C(=O)[C@@H](Cc2ccccc2)NC(=O)CN(Cc2ccc3c(c2)OCO3)C(=O)[C@H]2CCCN2C1=O	1.6
CCCC[C@@H]1NC(=O)[C@H](CC(C)C)N(C)C(=O)CN(CC2CCCCC2)C(=O)[C@@H](Cc2ccccc2)NC(=O)CN(CCCOC(C)C)C(=O)[C@@H]2CCCN2C1=O	7.9
CCCC[C@@H]1NC(=O)[C@H](CC(C)C)N(C)C(=O)CN(CC2CCCCC2)C(=O)[C@H](C)NC(=O)CN(CC)C(=O)[C@@H]2CCCN2C1=O	7.1
CCCC[C@@H]1NC(=O)[C@H](CC(C)C)N(C)C(=O)CN(CC2CCOCC2)C(=O)[C@@H](C)NC(=O)CN(CC)C(=O)[C@H]2CCCN2C1=O	0.012
CCCCCN1CC(=O)N(C)[C@@H](CC(C)C)C(=O)N[C@@H](CCCC)C(=O)N2CCC[C@H]2C(=O)N(CC)CC(=O)N[C@@H](Cc2ccccc2)C1=O	13
CCCC[C@@H]1NC(=O)[C@H](CC(C)C)NC(=O)CN(CC2CCOCC2)C(=O)[C@H](C)NC(=O)CN(CCCOC(C)C)C(=O)[C@@H]2CCCN2C1=O	0.027
CCCCCN1CC(=O)N(C)[C@@H](CC(C)C)C(=O)N[C@@H](CCCC)C(=O)N2CCC[C@@H]2C(=O)N(CC)CC(=O)N[C@@H](C)C1=O	4
CCCC[C@@H]1NC(=O)[C@@H](CC(C)C)NC(=O)CN(CC2CCOCC2)C(=O)[C@H](Cc2ccccc2)NC(=O)CN(CC)C(=O)[C@H]2CCCN2C1=O	1.3
CCCC[C@@H]1NC(=O)[C@@H](CC(C)C)NC(=O)CN(CC2CCOCC2)C(=O)[C@H](C)NC(=O)CN(CC)C(=O)[C@H]2CCCN2C1=O	0.041

The 3 lowest values of PAMPA among the entries above:

compound	PAMPA (10^-6 cm/s)
CCCC[C@@H]1NC(=O)[C@@H](CC(C)C)NC(=O)CN(CC2CCCCC2)C(=O)[C@@H](Cc2ccccc2)NC(=O)CN(Cc2ccc3c(c2)OCO3)C(=O)[C@H]2CCCN2C1=O	0.0054
CCCC[C@@H]1NC(=O)[C@H](CC(C)C)N(C)C(=O)CN(CC2CCOCC2)C(=O)[C@@H](C)NC(=O)CN(CC)C(=O)[C@H]2CCCN2C1=O	0.012
CCCC[C@@H]1NC(=O)[C@H](CC(C)C)NC(=O)CN(CC2CCOCC2)C(=O)[C@@H](C)NC(=O)CN(CCCOC(C)C)C(=O)[C@H]2CCCN2C1=O	0.014

Collected by the curators of CycPeptMPDB (Li et al. 2023) from Furukawa et al. 2016, doi:10.1021/acs.jmedchem.6b01246.